Assay results published in paper PMC8563940 (Scientific Reports, 2021).

Sequences of proteins named here, by UniProt entry; tags and fusion partners are left off. Residues count along the entry.
UniProt P22303, 32-614 limits assumed: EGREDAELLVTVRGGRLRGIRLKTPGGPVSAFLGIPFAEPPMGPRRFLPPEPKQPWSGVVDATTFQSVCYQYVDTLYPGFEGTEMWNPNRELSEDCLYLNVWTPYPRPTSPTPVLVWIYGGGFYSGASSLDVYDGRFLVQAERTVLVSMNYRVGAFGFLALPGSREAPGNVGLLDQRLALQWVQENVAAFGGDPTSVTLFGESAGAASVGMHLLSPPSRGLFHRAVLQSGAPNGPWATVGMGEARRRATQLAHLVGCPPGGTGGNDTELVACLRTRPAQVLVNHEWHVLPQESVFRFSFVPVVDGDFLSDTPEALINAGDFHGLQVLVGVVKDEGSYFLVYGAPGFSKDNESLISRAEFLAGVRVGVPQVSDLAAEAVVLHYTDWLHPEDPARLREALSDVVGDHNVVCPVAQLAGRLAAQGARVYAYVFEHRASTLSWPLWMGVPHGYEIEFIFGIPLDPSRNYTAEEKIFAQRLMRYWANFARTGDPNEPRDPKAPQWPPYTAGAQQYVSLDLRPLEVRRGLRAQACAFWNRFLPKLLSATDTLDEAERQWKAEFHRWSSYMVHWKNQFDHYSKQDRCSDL

Legend:
Format in all cases: biochemical
human AChE = human AChE (Homo sapiens, UniProt P22303); assay: Inhibition of AChE with 1 µM oxime
[1] = target: methamidophos-inhibited hAChE (Homo sapiens, UniProt P22303); assay: Oxime reactivation of methamidophos-inhibited hAChE; conditions: 25 °C; for Kd: read-out: KOX, dissociation constant of the phosphylated enzyme-oxime reversible complex
[2] = target: fenamiphos-inhibited hAChE (Homo sapiens, UniProt P22303); assay: Oxime reactivation of fenamiphos-inhibited hAChE; conditions: 25 °C; for Kd: read-out: KOX, dissociation constant of the phosphylated enzyme-oxime reversible complex
[3] = methamidophos-hAChE, oxime 0.1 mM
[4] = methamidophos-inhibited hAChE, ± SEM
[5] = fenamiphos-inhibited hAChE, ± SEM

Compound | Inhibition of AChE with oxime (human AChE) | Reactmax (screening) [1, 3] | kobs, observed reactivation rate (screening) [1, 3] | t, time to achieve maximum of reactivation (screening) [1, 3] | k2, maximal first-order reactivation rate constant [1, 4] | kr, overall second-order reactivation rate constant ([1]; methamidophos-inhibited hAChE, ± SEM, kr=k2/KOX) | Kd [1, 4] | Reactmax (screening) ([2]; fenamiphos-hAChE, oxime 0.1 mM) | kobs, observed reactivation rate (screening) ([2]; fenamiphos-hAChE, oxime 0.1 mM) | t, time to achieve maximum of reactivation (screening) ([2]; fenamiphos-hAChE, oxime 0.1 mM) | k2, maximal first-order reactivation rate constant [2, 5] | kr, overall second-order reactivation rate constant ([2]; fenamiphos-inhibited hAChE, ± SEM, kr=k2/KOX) | Kd [2, 5]
Cn1cc[n+](CCc2cn(CCC[N+](C)(C)CC=NO)nn2)c1C=NO | 13% | 62% | 1.3721 min -1 | 0.16 h | 2.9 ± 0.6 min⁻¹ | 22,400 ± 6,388 min^−1 M^−1 | 130 µM | 42% | 0.0061 min -1 | 5 h | 0.016 ± 0.002 min⁻¹ | 72 ± 12 min⁻¹ M⁻¹ | 220 µM
ON=Cc1cc[n+](CCn2cc(C[n+]3ccccc3C=NO)nn2)cc1 [Oxime 14A] |  |  |  |  |  |  | 200 µM |  |  |  |  |  | 810 µM
